## Ab-14 light chain CDR variants: yeast mating affinities

Data: MIT Lincoln Laboratory AlphaSeq set, Li et al. 2023, doi:10.1038/s41467-023-39022-2, as distributed in FLAb.

Target peptide (SARS-CoV-2 spike, HR2 region): PDVDLGDISGINAS

Each scFv is VH, a (GGGGS)3 linker, VL, as in the parent Ab-14, and differs from it in the CDRs of the light chain only.
VH: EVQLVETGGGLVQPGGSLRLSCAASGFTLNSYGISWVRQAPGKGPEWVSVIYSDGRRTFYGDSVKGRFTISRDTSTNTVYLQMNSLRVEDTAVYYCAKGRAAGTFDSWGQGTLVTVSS
VL: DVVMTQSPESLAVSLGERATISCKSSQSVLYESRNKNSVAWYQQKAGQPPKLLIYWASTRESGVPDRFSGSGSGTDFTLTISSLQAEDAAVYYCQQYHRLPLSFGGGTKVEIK

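Phage display of a naive human antibody library on the peptide gave the parent. Designed CDR sequences, proposed from the first random library and measured here. Group labels follow the data file (Ctrl: baseline library sampled from a position-specific scoring matrix, with some repeated check sequences; Rand: our label for a block that the file lists under HC and that is probably the random mutants of the ten best first-round binders; En: ensemble of fine-tuned language models; GP: Gaussian process model; HC: hill climbing; Gen: genetic algorithm; Gibbs: Gibbs sampling; a sequence that several methods proposed may carry one label only). AlphaSeq pools MATa yeast showing the antibodies with MATalpha yeast showing the peptide. After mating in shaken culture at 30 °C for 16 h, diploids were selected and their barcode pairs sequenced. Read counts were normalised to the haploid input and turned into Kd by a linear fit to BCL2-family pairs of known affinity, for each replicate. The assay was run in six technical replicates.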

The parent's light chain CDRs are KSSQSVLYESRNKNSVA, WASTRES, QQYHRLPLS; each variant's own CDRs replace them letter for letter. The Kd shown is the geometric mean over detected replicates; a lower Kd is a better binder. Where no diploid with the target was found in any replicate, the entry reads "no signal": below detection, most likely a poor binder, though not proof of it. Of ten entries with the parent sequence, four were seen in most replicates (averages 2.2 nM to 240 nM), three in one and three in none, so single entries are noisy. The authors' rule: three or more of the six replicates give a measured affinity, fewer mean a poor binder. As a blank, each scFv also met three strains without target: over all light chain designs, 4% of these pairings were detected, typically at 430 nM and seldom below 38 nM. The range of this assay differs from that of the first round, and the authors advise against merging the two.

CDR-L1	CDR-L2	CDR-L3	group	apparent Kd	replicates with signal
ALTAHHQGAIEAKNSIA	NAVMLYQ	QQYAQLPLM	En_Gibbs	no signal	0 of 6
KQSQSGLYESRNKNSVA	DASTRES	QQYHRLPLD	GP_HC	3.7 nM	6 of 6
KLQQSVLYGSRNKNSVA	EASTRES	QQYHRLPLS	GP_Gen	1.5 nM	6 of 6
KFSPSVLYESRTKNSVA	EASTRES	QQYHRLPLS	GP_HC	620 pM	6 of 6
KLGGSTRFESSNKASIA	DNSTRES	QQYHRLPLS	En_HC	5.2 nM	6 of 6
KSSQSVLYESTNKNSVA	NASTRES	QQYHRLPLS	Ctrl	870 pM	6 of 6
NMEGVEFEIAQHGNSVA	GVDLREA	QQYARLPLH	En_Gibbs	6.7 nM	6 of 6
KSSQSLLYESRNKNSVA	WARTRES	QQYHRLPLS	Ctrl	no signal	0 of 6
KYSTSELEESRNKNSVA	WASHREE	QQYHRLPLS	GP_Gibbs	3.8 nM	6 of 6
KSSQNVLYESRNKNSLA	WASTRES	QQYHKLPLE	Ctrl	800 nM	3 of 6
KLMNSLGAFKQSEDNVA	EVEQKVA	QQYDHLPLT	En_Gibbs	no signal	0 of 6
KSSQSVLNESRNKNSVA	GASTRES	NQYHRLPLS	Ctrl	220 nM	1 of 6
MISQVMNTLTRTGNNVA	DLAEREQ	QQYFRLPLS	En_Gen	30 nM	3 of 6
KSSMSELYESRNKNSVA	EASTRES	QQYHRLPLS	GP_Gen	1.6 nM	6 of 6
TISQITSLFSQTINNVA	EVSTREA	QQYDRLPLM	En_Gen	10 nM	6 of 6
KLYQSVAMTSANKNNVA	DLNERER	QQYHRLPLS	En_HC	730 pM	6 of 6
KSNQSVLYESRNHNSVA	EASTRES	QQYHRLPLS	Ctrl	13 nM	5 of 6
KFSQEVLYESRNKNSVA	WASTHES	QQYFRLPLS	Ctrl	59 nM	6 of 6
RLSALSGIQSVERNSVA	QNSTREE	QQYDRLPLS	En_Gen	110 nM	3 of 6
KVSQSCLGESRNKNSVA	NASTREK	QQYHRLPLS	GP_Gibbs	1.8 nM	6 of 6
KVSQSHLYESRNKNSVA	QASTRES	QQYHRLPLS	GP_Gen	4.3 nM	6 of 6
KLQQSWEYGSRNKNSVA	NASQRED	QQYHRLPLS	GP_Gibbs	2.0 nM	2 of 6
MFSQGVMYGWLARNSVA	NSSTRES	QQYHRLPLS	En_HC	7.5 nM	6 of 6
KLTTVTGTEKVHGNNVA	EMETRER	QQYNRLPLA	En_Gen	1.6 nM	6 of 6
KFSQSVLYEWRNKNSVA	DASTRES	QQYHRLPLS	GP_HC	790 pM	6 of 6
KMSQSFLYESRNVNSVA	GASTRES	QQYHRLPLS	GP_HC	720 pM	6 of 6
KVSQSDLYESRNKNSVA	NASQRES	QQYHRLPLS	GP_Gen	8.5 nM	6 of 6
KLEQSMLYESRNSNSVA	NASTRMD	QQYHRLPLM	GP_Gibbs	2.1 nM	6 of 6
MMSYGWLYGSRNKRNVA	DRETRMS	QQYDRLPLS	En_HC	1.7 nM	6 of 6
KLSTSWLYEKRNKNSVA	QASQRES	QQYHRLPLS	GP_Gibbs	2.3 nM	6 of 6
SVSQSVLYESRTKNSVA	NASTRES	QQYHRLPLS	GP_HC	1.2 nM	6 of 6
KLSQSVLYQSRNKNSVA	NASTRMS	QQYHRLPLS	GP_Gen	840 pM	6 of 6
KSYISELYESRNKNSVA	EASTRES	QQYHRLPLS	GP_HC	25 nM	5 of 6
KISGMYQKESKNKNSVA	EMVNRAS	QQYDRLPLS	En_HC	6.7 nM	6 of 6
KLRQSTYYESRNQNSVA	WASTRES	QQYHRLPLS	GP_HC	1.2 µM	4 of 6
IISQVMNTLTRHGNNVA	DLAERED	QQYFRLPLS	En_Gen	no signal	0 of 6
KVSISYLLESRNKNSVA	EADTRES	QQYHRLPLS	GP_HC	1.0 nM	6 of 6
TLTQVQGMESHNKDNVA	DLSTRGS	QQYNRLPLS	En_HC	580 pM	6 of 6
IVSQLMLWGYHAKNSIA	EASTRGN	QQYDRLPLF	En_Gen	1.0 nM	6 of 6
TISQVMNTMTRHGNNVA	DLEERED	QQYFRLPLS	En_Gen	11 nM	6 of 6
MIAQGLRGVGRNKNSVA	NAQTRES	QHYHRLPLS	En_HC	250 nM	3 of 6
FLSQSVLYESRNKNSVA	NASTRES	QQYHRLPLS	GP_Gen	660 pM	6 of 6
KLSQSVLYESRNKNSVA	NASCRES	QQYHRLPLS	GP_Gen	820 pM	6 of 6
KLSQSHLYESRNSNSVA	DASTRES	QQYHRLPLS	GP_Gen	1.1 nM	6 of 6
KLSQTHGMEMVNRNSVA	ELVTRLN	QQYNRLPLS	En_Gen	21 nM	6 of 6
HIDQFTSYDNGEDRAIA	DVTIKDY	QQYARLPLL	En_Gibbs	7.8 nM	6 of 6
KLSQSFLYESRNKNSVA	DASTRCS	QQYHRLPLS	GP_Gen	930 pM	6 of 6
KSSQSGLYESRMKNSVA	EASTRES	QQYHRLPLS	GP_HC	6.0 nM	6 of 6
KLPVLKLYGSRNKNSVA	EASTRES	QQYHRLPLS	GP_Gibbs	420 pM	6 of 6
KLSQSVLYEERNKNSVA	NASTRES	QQYHRLPLS	GP_Gen	410 pM	6 of 6
KLQMLELYESRWCNSVA	QASTREE	QQYHRLPLS	GP_Gibbs	10 nM	6 of 6
MISGSVMSESRLKNSVA	QTTTREA	QQYDRLPLS	En_HC	2.8 nM	6 of 6
KISQSWLYESRNSNSVA	NGSTREL	QDYHRLPLS	GP_Gibbs	850 pM	6 of 6
KSSQSWLYESRNFWSVA	NASTRED	QQYHRLPLS	GP_HC	680 pM	6 of 6
KLYYHEVGLVNGQNSIA	ETDQLTF	QQYSHLPLS	En_Gibbs	31 nM	6 of 6
KVSQSVLYESRTKNSVA	NASTRES	QQYHRLPLS	GP_HC	860 pM	6 of 6
KLYYHEVGEVNGQNSIA	ETDQLTF	QQYSHLPLS	En_Gibbs	46 nM	6 of 6
KMSQSVLYESRNKNSVA	GASTRES	QQYHRLPLS	GP_Gen	630 pM	6 of 6
KSSISYLYESGNKNSVA	EASQRES	QQYHRLPLS	GP_HC	3.1 nM	6 of 6
KSSQSVLYESRNVNSVA	WASTRES	QQDHRLPLS	Ctrl	22 nM	3 of 6
KSMQSVLYESRNKNSVA	TASTRTS	QQYHRLPLS	Ctrl	81 nM	1 of 6
LISGVWDYGSRNYNSVA	QTSTRES	QQYDRLPLF	En_HC	28 nM	6 of 6
KFDQEWLYESRNKNSVA	HASQRCS	QQYHRLPLS	GP_Gibbs	2.0 nM	6 of 6
YLRQSTLYESRNKNPVA	WASTRES	QQYHRLPLS	Rand	no signal	0 of 6
KLSQSELYESRNKNSVA	GASTRLS	QQYHRLPLS	GP_Gen	480 pM	6 of 6
KVEQSTLYESRNKNSVA	NASTRES	QQYHRLPLS	GP_Gen	440 pM	6 of 6
KLDMNELGYSQLSSSVA	GSANKCQ	QQYFRLPLS	En_Gibbs	470 pM	6 of 6
KSSQSVLYDSRNKNSVA	EASTRES	QQYHRLPLS	Ctrl	33 nM	6 of 6
KLSQSELYESRNKNSVA	EASQRED	QQYHRLPLS	GP_Gen	1.4 nM	6 of 6
KSSQQVLYESRNTNSIA	WASTRES	QQYHRLPLS	Ctrl	no signal	0 of 6
KLAMYTGHMSVSKNNVA	EMETREN	QQYDRLPLS	En_Gen	200 nM	3 of 6

Repeated from above, the 4 best binders with a signal in all replicates:

CDR-L1	CDR-L2	CDR-L3	group	apparent Kd	replicates with signal
KLSQSVLYEERNKNSVA	NASTRES	QQYHRLPLS	GP_Gen	410 pM	6 of 6
KLPVLKLYGSRNKNSVA	EASTRES	QQYHRLPLS	GP_Gibbs	420 pM	6 of 6
KVEQSTLYESRNKNSVA	NASTRES	QQYHRLPLS	GP_Gen	440 pM	6 of 6
KLDMNELGYSQLSSSVA	GSANKCQ	QQYFRLPLS	En_Gibbs	470 pM	6 of 6